Data: ChEMBL document CHEMBL5321247, “Discovery of NXT-10796, an orally active, intestinally restricted EP4 agonist prodrug for the treatment of inflammatory bowel disease” (Bioorg Med Chem Lett, 2023)
Activity calls are given as the source filed them. The rule behind the calls is not given here.

Key:
Mus musculus [1] = experiment: In vivo agonist activity at EP4 in C57BL/6J mouse assessed as increase in Ccl5 expression in colon at 1 to 5 mg/kg, po administered for 3 days by qPCR analysis; type: functional, organism-based; conditions: dose 1-5 mg/kg, time 3.0 day
Mus musculus [2] = experiment: In vivo agonist activity at EP4 in po dosed C57BL/6J mouse assessed as increase in renin level in plasma at 1 to 5 mg/kg, po measured after 2 hrs; type: functional, organism-based; conditions: dose 1-5 mg/kg

`O=C(O)CCCCCCN1C(=O)CC[C@@H]1/C=C/[C@@H](O)Cc1ccccc1` was tested, and the Activity (Mus musculus [1]) was “Active” and the Activity (Mus musculus [2]) was “Active”.
